These are literature values, as cited in publication PMC9434702 (Journal of medicinal chemistry, 2022).

Protein sequences, listed by entry. Tags and fused reporters are not part of them. Residues count along the entry.
UniProt Q14416, 19-872: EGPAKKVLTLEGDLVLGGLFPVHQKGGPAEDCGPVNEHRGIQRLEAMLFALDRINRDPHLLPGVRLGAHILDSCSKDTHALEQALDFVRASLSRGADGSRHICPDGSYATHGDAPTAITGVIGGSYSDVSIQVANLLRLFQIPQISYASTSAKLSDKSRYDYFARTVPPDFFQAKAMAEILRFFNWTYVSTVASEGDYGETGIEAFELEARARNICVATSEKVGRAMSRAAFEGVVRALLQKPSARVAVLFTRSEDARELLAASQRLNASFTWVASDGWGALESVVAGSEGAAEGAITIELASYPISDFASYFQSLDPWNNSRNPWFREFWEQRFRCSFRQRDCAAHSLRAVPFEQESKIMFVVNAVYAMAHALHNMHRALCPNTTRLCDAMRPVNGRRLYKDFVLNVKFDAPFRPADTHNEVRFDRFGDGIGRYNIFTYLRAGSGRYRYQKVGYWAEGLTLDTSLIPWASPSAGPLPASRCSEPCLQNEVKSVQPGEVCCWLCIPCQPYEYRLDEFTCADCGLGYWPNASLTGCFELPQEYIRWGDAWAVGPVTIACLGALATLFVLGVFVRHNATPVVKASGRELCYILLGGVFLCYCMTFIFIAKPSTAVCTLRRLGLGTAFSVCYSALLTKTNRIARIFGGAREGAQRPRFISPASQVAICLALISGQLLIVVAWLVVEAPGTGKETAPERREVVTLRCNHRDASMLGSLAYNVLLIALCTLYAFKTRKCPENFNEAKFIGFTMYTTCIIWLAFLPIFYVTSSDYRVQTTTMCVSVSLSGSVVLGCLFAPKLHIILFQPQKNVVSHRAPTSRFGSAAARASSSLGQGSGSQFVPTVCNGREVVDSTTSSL

In the series the target is mGluR2 (Homo sapiens, UniProt Q14416). As to conditions: mGluR2 NAM; cited from earlier work.

For the molecule `COc1ccc(-c2cc(C(N)=O)nc3cc(CN4C(=O)CCC4=O)ccc23)c(F)c1` [compound 7], the IC50 (usually the concentration at which inhibition is half-maximal) is 45 nM.
